Patent US20230330242A1 (published 2023)

Chains of the proteins cited; added tags and fusions are not shown. Residues count along the entry.
UniProt Q01973, 30-403 limits assumed: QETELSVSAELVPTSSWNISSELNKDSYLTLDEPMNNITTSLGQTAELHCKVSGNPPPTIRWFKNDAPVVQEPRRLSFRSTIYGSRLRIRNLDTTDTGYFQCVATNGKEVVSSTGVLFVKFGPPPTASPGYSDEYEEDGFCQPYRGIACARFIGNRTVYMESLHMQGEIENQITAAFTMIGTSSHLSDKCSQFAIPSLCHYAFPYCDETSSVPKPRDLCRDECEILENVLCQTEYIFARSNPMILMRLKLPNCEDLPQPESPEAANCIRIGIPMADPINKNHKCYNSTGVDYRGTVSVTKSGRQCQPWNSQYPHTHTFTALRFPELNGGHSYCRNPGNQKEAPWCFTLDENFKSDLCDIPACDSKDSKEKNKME

Molecular target: T1, Hu/Cy/Rh ROR1-His (human/cyno/rhesus, UniProt Q01973, in part)
T1 construct: Purified His-tagged ROR1 protein; also called HUMAN/CYNO/RHESUS ROR-1; not shown: His tag
Test: SPR, purified protein

B1: ATX-P-890 (antibody, human IgG1, kappa, V domains shown)
VH: QVQLVQSGAEVKKPGASVKVSCKASGYTFTGYYMHWVRQAPGQGLEWMGWINPNSGGTNYAQKFQGRVTMTRDTSISTAYMELSRLRSDDTAVYYCVRDQVQLERFDSWGQGTLVTVSS
VL: [omitted - about 100 residues]
notes: Full length IgG (IgG1, kappa) expressed in HEK293; also called mAb C
Kd: 8.4 nM
koff: 0.00314 s⁻¹
kon: 392000 M⁻¹ s⁻¹
